# Tested on: Trypanosoma brucei brucei
# Test: Antiparasitic activity against bloodstream form of Trypanosoma brucei brucei 427 […] assessed as growth inhibition after 72 hrs by Alamar Blue assay
# Format: functional, organism-based
row,Structure (SMILES),growth inhibition (GI)
1,Nc1nc2c(c(=O)[nH]1)N1C(=O)N(c3ccc(C(=O)NC(CCC(=O)O)C(=O)O)cc3)CC1CN2 (stereo not given),Dose-dependent effect
2,CCOC(=O)CC[C@H](NC(=O)c1ccc(NC(=O)Nc2c(N)nc(N)[nH]c2=O)cc1)C(=O)OCC,Dose-dependent effect
3,Nc1nc(N)c(NC(=O)Nc2ccc(C(=O)N[C@@H](CCC(=O)O)C(=O)O)cc2)c(=O)[nH]1,Dose-dependent effect
4,Nc1nc(N)c(NC(=O)Nc2ccc(C(=O)O)cc2)c(=O)[nH]1,Dose-dependent effect
5,CCOC(=O)c1ccc(NC(=O)Nc2c(N)nc(N)[nH]c2=O)cc1,Dose-dependent effect

# From ChEMBL document CHEMBL3621150, “Characterization of 2,4-Diamino-6-oxo-1,6-dihydropyrimidin-5-yl Ureido Based Inhibitors of Trypanosoma brucei FolD and Testing for Antiparasitic Activity” (J Med Chem, 2015)
